Experimental data: patent US20200399329A1, “ANTIMICROBIAL PEPTIDES” (priority 2015, published 2020)

What was measured:
Format in all cases: cell-based, Escherichia coli
E. coli Sens. 25922 [1] = system: E. coli Sens. 25922
Protocol: (§1) In order to determine the MIC values of the peptides, growth and inhibition of various bacteria were monitored after treatment with the peptides of the invention (Table 6).
(§2) E. coli bacteria were cultured with or without OMN6 in increasing concentrations of 0.8-200 μM and with or without Fetal Bovine Serum 10% for 17-20 hours. The growth of the bacteria was continuously monitored via spectrophotometry at 600 nm. As bacterial growth progresses, OD600 nm values rise, and where the growth is inhibited OD600 nm values remain constant.
(§3) The experimental system and parameters described here were used to determine the MIC values of OMN2, OMN6, OMN7 and OMN11 on various bacteria strains (Table 7 and Table 8).

E. coli CR BAA-2452 [2] = system: E. coli CR BAA-2452
Protocol: (§4) In order to determine the Minimal Bactericidal Concentration (MBC) values of the peptides, colony formation of various bacteria strains was monitored and determined after treatment with the peptides of the invention. Multi-Drug Resistant A. baumannii bacteria were cultured with or without OMN6 in increasing concentrations, as is detailed in FIG. 6 and Example 6. Immediately afterwards, samples of each experimental group were diluted to 1×10^4 to 1×10^6 as necessary, and further, the samples were plated on appropriate medium-agar plates. All the plates were incubated at 37° C. for 24-48 hours. Colonies were counted and CFU/ml in the original sample, prior to plating, were calculated and determined. An example of the plates, after incubation, is presented in FIG. 7 where the plate on the left side of the image is the CTRL sample treated with DDW and in the right side of the image increasing concentrations of OMN6 are presented, as specified therein.
(§5) The experimental system and parameters described here were used to determine the MBC values of OMN2, OMN6, OMN7 and OMN11 on various bacteria strains with and without the supplementation of 10% FBS (Table 6 and Table 8).

E. coli Sens. 25922 [3] = system: E. coli Sens. 25922; remark: listed apart in the source
Protocol: as §4, §5

E. coli CR BAA-2452 [4] = system: E. coli CR BAA-2452; remark: listed apart in the source
Protocol: as §1, §2
E. coli NDM1 is a Carbapenem resistant strain of bacteria. The experimental system described above was used to determine the antimicrobial effect of OMN6 on this bacteria compared to the antibiotic drug Imipenem (IPM), a member of the Carbapenem family of antibiotics. The MIC value for IPM on sensitive E. coli is 4 μg/ml, in a MIC above 8 μg/ml the bacteria is considered resistant.
as §3

MIC (E. coli Sens. 25922 [1]): 25 µM (≈ 104 µg/mL) | MIC (E. coli CR BAA-2452 [4]): 20 µM (≈ 83.4 µg/mL)
SMILES: CC[C@H](C)[C@H](NC(=O)CNC(=O)[C@H](CC(N)=O)NC(=O)[C@H](CCCNC(=N)N)NC(=O)[C@@H](NC(=O)[C@H](CC(N)=O)NC(=O)[C@H](CCCNC(=N)N)NC(=O)CNC(=O)[C@H](CCCCN)NC(=O)[C@H](CCSC)NC(=O)[C@H](CCC(=O)O)NC(=O)[C@@H](NC(=O)[C@H](CCCCN)NC(=O)[C@H](CCCCN)NC(=O)[C@H](Cc1ccccc1)NC(=O)[C@@H](NC(=O)[C@H](CCCCN)NC(=O)[C@H](Cc1c[nH]c2ccccc12)NC(=O)[C@H](CCCCN)NC(=O)[C@H](CS)NC(=O)[C@@H](N)CCSC)C(C)C)[C@@H](C)CC)[C@@H](C)CC)C(=O)N[C@H](C(=O)N[C@@H](CCCCN)C(=O)N[C@@H](C)C(=O)NCC(=O)N1CCC[C@H]1C(=O)N[C@@H](C)C(=O)N[C@H](C(=O)N[C@@H](C)C(=O)N[C@H](C(=O)N[C@@H](CC(C)C)C(=O)NCC(=O)N[C@@H](CCC(=O)O)C(=O)N[C@@H](C)C(=O)N[C@@H](CCCCN)C(=O)N[C@@H](C)C(=O)N[C@@H](CC(C)C)C(=O)N[C@@H](CS)C(N)=O)C(C)C)[C@@H](C)CC)C(C)C [OMN2]
MBC (E. coli CR BAA-2452 [2]): 20 µM (≈ 83.4 µg/mL) | MBC (E. coli Sens. 25922 [3]): 25 µM (≈ 104 µg/mL)

≈ marks a conversion by molar mass, not a printed value.
